The target of the test is human PD-1 on transfected Jurkat cells (human) (UniProt Q15116). Kind of test: flow cytometry, pre-titration of Alexa Fluor 647 pembrolizumab.

By UniProt entry, the sequences of proteins in these tests, tags left out. Residues count along the entry.
UniProt Q15116, 25-288: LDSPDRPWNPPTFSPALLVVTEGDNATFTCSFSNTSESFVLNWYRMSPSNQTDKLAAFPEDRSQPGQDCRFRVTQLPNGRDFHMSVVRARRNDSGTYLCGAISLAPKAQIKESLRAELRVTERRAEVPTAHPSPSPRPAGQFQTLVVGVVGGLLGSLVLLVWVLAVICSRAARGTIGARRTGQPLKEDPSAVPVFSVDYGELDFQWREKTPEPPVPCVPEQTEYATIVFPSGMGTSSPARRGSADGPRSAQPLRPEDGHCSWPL

“Alexa Fluor 647 human anti-human PD-1 (Pembrolizumab (KEYTRUDA), Clinical grade) (antibody)” displayed a receptor saturating concentration of 5.5 µg/mL.
